From US20130244896A1, “IN VITRO METHOD FOR PREDICTING WHETHER A COMPOUND IS GENOTOXIC IN VIVO” (priority 2012, published 2013)

Columns and labels:
[1] = tested on: microRNA 1262, microRNA 98 and microRNA 30c-1; details: three microRNAs 1262, 98, 30c-1
[2] = tested on: microRNAs 885-3p, 888*, 98, 1262, 1229, 30c-1*, 891b, 302b, 1246, and 502-3p
[3] = correct predictions out of 30 (ten microRNAs x three experiments)

Compound	Aggregate result, result [1]	Aggregate result, correct [2, 3]	Aggregate result, result ([2]; ten microRNAs)	Aggregate result, result [2]	Aggregate result, correct ([2]; human)
Clc1cc2c(cc1Cl)Oc1cc(Cl)c(Cl)cc1O2 [2,3,7,8-tetrachloro dibenzo-p-dioxin]	NGTX (predicted to be in vivo NGTX when more than 50% of the microRNAs gave the prediction in vivo NGTX than in vivo GTX)	23/30	NGTX (predicted to be in vivo NGTX when more than 50% of the microRNAs gave the prediction in vivo NGTX than in vivo GTX)		
Oc1cccc2cccnc12 [8-quinolinol]				NGTX	19/30
C[C@]12CC[C@@H]3c4ccc(O)cc4CC[C@H]3[C@@H]1CC[C@@H]2O [17beta-estradiol, 17 beta-estradiol]	NGTX (predicted to be in vivo NGTX when more than 50% of the microRNAs gave the prediction in vivo NGTX than in vivo GTX)	17/30	NGTX (predicted to be in vivo NGTX when more than 50% of the microRNAs gave the prediction in vivo NGTX than in vivo GTX)		
CC1(C)S[C@@H]2[C@H](NC(=O)[C@H](N)c3ccccc3)C(=O)N2[C@H]1C(=O)O [Ampicillin trihydrate]	NGTX (predicted to be in vivo NGTX when more than 50% of the microRNAs gave the prediction in vivo NGTX than in vivo GTX)	25/30	NGTX (predicted to be in vivo NGTX when more than 50% of the microRNAs gave the prediction in vivo NGTX than in vivo GTX)		
c1ccc2c(c1)cc1ccc3cccc4ccc2c1c34 [Benzo[a]pyere]	GTX (predicted to be in vivo GTX when more than 50% of the microRNAs gave the prediction in vivo GTX than in vivo NGTX)	23/30	GTX (predicted to be in vivo GTX when more than 50% of the microRNAs gave the prediction in vivo GTX than in vivo NGTX)		
N.N.[Cl][Pt][Cl] [Cisplatin]	GTX (predicted to be in vivo GTX when more than 50% of the microRNAs gave the prediction in vivo GTX than in vivo NGTX)	24/30	GTX (predicted to be in vivo GTX when more than 50% of the microRNAs gave the prediction in vivo GTX than in vivo NGTX)		
O=c1c(O)c(-c2ccc(O)c(O)c2)oc2cc(O)cc(O)c12 [Quercetin]	NGTX (predicted to be in vivo NGTX when more than 50% of the microRNAs gave the prediction in vivo NGTX than in vivo GTX)	16/30	NGTX (predicted to be in vivo NGTX when more than 50% of the microRNAs gave the prediction in vivo NGTX than in vivo GTX)		

Where two headings read alike, the source gives them in different places.
